This test addresses T1, Kv 1.5-potassium channel (Homo sapiens, UniProt P22460).
T1 construct: expressed in transfected cells
Briefly: In-vitro Kv 1.5-potassium channel-blocking effect (Rb+ outflow from CHO cells, atomic absorption spectroscopy). It is filed as cell-based. The conditions noted are these: CHO cells stably expressing Kv 1.5, read-out: IC50 (Kv1.5-potassium channel-blocking effect, concentration of half-maximum inhibition). How it is done:
1. In-Vitro Investigation of the Kv 1.5-Potassium Channel-Blocking Effect of the Substances
In this test model, a cell line of egg cells of the Chinese hamster (=“Chinese hamster oocytes”, “CHO”) is used which originates from a single cell and stably expresses the Kv 1.5-channel. By incubation overnight in a nutrient medium containing RbCl or a “loading buffer” (all values in mM: RbCl 5, NaCl 140, CaCl2 2, MgSO4 1, HEPES buffer 10, glucose 5) the aforementioned oocytes are loaded with Rb^+ under the influence of Na^+/K^+-ATPase. […] The extent of the Kv 1.5-potassium channel-blocking effect of the test substances of Formula I is determined by measuring the Rb^+ ion concentration in the liquid surrounding them by means of atomic absorption spectroscopy against a reference standard.
Chinese hamster oocytes (see above) were cultivated in a known, RbCl-containing nutrient medium for CHO-cells and placed in the sample wells of a 96-sample capacity sample plate (“96 well plate”). […] In each case, 80 μl of the liquid surrounding the oocytes from each sample well was then transferred separately to the sample wells of an analysis sample plate, and the Rb^+ ion concentration in the liquids was determined by atomic absorption spectroscopy. […]

The chains behind the UniProt entries cited, without tags or fusion partners.
UniProt P22460, whole entry: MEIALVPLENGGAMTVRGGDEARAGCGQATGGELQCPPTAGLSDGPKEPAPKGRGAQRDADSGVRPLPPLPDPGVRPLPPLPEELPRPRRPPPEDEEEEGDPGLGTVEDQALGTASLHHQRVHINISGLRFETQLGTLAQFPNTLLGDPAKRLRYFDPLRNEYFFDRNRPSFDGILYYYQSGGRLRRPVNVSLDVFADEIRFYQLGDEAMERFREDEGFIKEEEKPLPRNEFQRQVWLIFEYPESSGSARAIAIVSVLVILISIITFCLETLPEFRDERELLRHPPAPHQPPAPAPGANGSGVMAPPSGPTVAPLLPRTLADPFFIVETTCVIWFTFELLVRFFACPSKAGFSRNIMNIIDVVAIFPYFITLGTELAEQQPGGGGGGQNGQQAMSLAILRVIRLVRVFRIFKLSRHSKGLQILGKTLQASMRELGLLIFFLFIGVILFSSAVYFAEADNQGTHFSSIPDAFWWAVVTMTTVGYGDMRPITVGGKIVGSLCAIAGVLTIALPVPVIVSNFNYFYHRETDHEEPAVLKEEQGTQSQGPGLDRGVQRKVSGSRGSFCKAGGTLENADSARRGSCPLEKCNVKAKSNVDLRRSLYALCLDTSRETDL

With `CCc1ccc(S(=O)(=O)N[C@@H]2c3cc(CC(=O)NCc4ccccc4)ccc3OC(C)(C)[C@H]2O)cc1` [Example 11], the IC50 was 3.2 µM.

Source of the values: patent US7368582B2, “Amidomethyl-substituted 2-(4-sulfonylamino)-3-hydroxy-3,4-dihydro-2H-chromen-6-yl compounds, a process and intermediates for their production, and pharmaceutical compositions containing them” (Solvay Pharmaceuticals GmbH, priority 2003, dated 2008).
